{
  "source": "paper PMC8461973",
  "about": "(ACS Sustainable Chemistry & Engineering, 2021)",
  "target": "T1, YfaU (YfaU-wt) (Escherichia coli, UniProt P76469)",
  "T1 construct": "gene rhmA",
  "T1 sequence (P76469 1-267)": "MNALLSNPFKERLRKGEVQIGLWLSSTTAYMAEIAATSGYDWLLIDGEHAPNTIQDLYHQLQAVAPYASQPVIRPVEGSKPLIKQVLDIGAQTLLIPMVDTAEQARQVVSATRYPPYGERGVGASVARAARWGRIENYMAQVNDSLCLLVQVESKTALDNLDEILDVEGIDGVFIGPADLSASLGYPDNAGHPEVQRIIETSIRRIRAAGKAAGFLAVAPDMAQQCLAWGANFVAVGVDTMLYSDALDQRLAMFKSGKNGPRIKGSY",
  "conditions": "substrate inhibition; co-substrate pyruvate",
  "data": [
    {"smiles": "C=O", "note": "[formaldehyde]", "values": [
      {"measurement": "Ki,formadehyde", "value": "95 ± 14", "unit": "mM"}
    ]}
  ]
}
